pIC50: −log10 of the molar value.

By UniProt entry, the sequences of proteins in these tests, tags left out.
UniProt P25103, whole entry: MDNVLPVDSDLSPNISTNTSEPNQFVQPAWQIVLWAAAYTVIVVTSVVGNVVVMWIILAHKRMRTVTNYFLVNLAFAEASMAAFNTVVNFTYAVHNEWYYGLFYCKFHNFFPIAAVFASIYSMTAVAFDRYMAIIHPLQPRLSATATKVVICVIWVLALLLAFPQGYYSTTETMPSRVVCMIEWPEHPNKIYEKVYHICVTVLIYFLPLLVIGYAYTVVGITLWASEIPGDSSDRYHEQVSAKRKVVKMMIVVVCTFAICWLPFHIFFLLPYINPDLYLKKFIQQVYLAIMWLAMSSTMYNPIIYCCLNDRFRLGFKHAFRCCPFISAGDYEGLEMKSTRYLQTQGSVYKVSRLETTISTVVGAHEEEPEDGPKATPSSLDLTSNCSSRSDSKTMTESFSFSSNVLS

The experiment has as its target Substance-P receptor (Homo sapiens, UniProt P25103). Kind of experiment: Binding affinity towards Tachykinin receptor 1 in human IM-9 cells using [3H]-substance P as ligand. It counts as cell-based. The procedure, abridged:
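Displacement of [³H]SP (0.5 nM final) from human IM-9 cell preparation in 50 mM TRIS-HCl pH 7.7 with MnCl2, BSA, bacitracin, leupeptin, […], phosphoramidon; 20 min, room temperature, dark. Filtration on polyethylenimine-soaked GF/B filters, scintillation counting. IC50 from six-point curves, duplicates; mean ± SEM of three experiments.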

`Clc1ccccc1CN[C@H]1C2CCN(CC2)[C@H]1C(c1ccccc1)c1ccccc1` showed a pIC50 of 7.48.

In the case of `Clc1cccc(CN[C@H]2C3CCN(CC3)[C@H]2C(c2ccccc2)c2ccccc2)c1`, the pIC50 is 4.55.

Source of the values: ChEMBL document CHEMBL1125478, “The discovery of (2S,3S)-cis-2-(diphenylmethyl)-N-[(2-methoxyphenyl)methyl]-1- azabicyclo[2.2.2]-octan-3-amine as a novel, nonpeptide substance P antagonisst” (J Med Chem, 1992).
